Experiment [1] has as its target THR beta-LBD (Homo sapiens, UniProt P10828). Put plainly: LanthaScreen TR-FRET Thyroid Receptor beta Coactivator Assay. Conditions: for THRβ-Selectivity: THR beta over THR alpha, derived from T3-selectivity normalized data; for EC50: read-out: EC50 THRβ-FRET, TR-FRET coactivator assay, 2 hours incubation at room temperature, run in duplicate multiple times, average data. In kind it is biochemical. In general terms: In TR-FRET formats the signal depends on donor and acceptor labels being close together.

Sequences of proteins named here, by UniProt entry; tags and fusion partners are left off. Residues count along the entry.
UniProt P10828, 217-461 limits assumed: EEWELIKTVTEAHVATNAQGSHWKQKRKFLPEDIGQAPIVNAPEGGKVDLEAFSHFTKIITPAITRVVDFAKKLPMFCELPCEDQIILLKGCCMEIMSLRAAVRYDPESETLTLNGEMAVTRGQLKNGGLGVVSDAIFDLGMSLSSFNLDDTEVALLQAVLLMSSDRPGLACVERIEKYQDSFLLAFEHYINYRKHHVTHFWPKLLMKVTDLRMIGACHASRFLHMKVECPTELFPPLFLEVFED
UniProt P10827, 163-410 isoform 2 limits assumed: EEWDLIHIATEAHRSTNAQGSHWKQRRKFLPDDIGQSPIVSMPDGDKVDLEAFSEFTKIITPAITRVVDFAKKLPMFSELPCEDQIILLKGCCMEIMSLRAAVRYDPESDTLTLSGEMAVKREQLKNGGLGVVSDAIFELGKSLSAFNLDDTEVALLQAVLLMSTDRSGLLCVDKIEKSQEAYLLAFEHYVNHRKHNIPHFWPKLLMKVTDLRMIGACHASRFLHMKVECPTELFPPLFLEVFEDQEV

For experiment [2], the target named is THR alpha-LBD (Homo sapiens, UniProt P10827). Put plainly: LanthaScreen TR-FRET Thyroid Receptor alpha Coactivator Assay. Conditions: read-out: EC50 THRα-FRET, 2 hours incubation at room temperature, run in duplicate multiple times, average data.

As a reminder, the EC50 is the concentration at which the effect is half-maximal.

In experiment [1], `Cn1nc(-c2cc(Cl)c(Oc3cc(C4CC4)c(=O)[nH]n3)c(Cl)c2)c(=O)[nH]c1=O` had a THRβ-Selectivity of 22.7. Moreover, the results for the EC50 in experiment [1] and in experiment [2] were 524 nM and 3.32 µM, respectively.

Take `Cc1cc(-c2nn(C)c(=O)[nH]c2=O)cc(C)c1Cc1cc(C(C)C)c(=O)[nH]n1`: in experiment [1], the THRβ-Selectivity is 10.9 and the half-maximal effective concentration (EC50) turned out to be 1420 nM. For the same molecule, the EC50 in experiment [2] was 4.26 µM.

The values above are taken from US11203587B2, “Thyroid hormone receptor beta agonist compounds” (Terns, Inc., priority 2018, dated 2021).
